Assay: Selectivity for Lck over KDR

Ratio IC50: > 200
SMILES: Cc1ccc(NC(=O)c2ccc3c(c2)OC(F)(F)O3)cc1C(=O)Nc1cnc(Nc2ccc(N3CCN(C)CC3)cc2)nc1

Source: ChEMBL document CHEMBL1144680, “Structure-guided design of aminopyrimidine amides as potent, selective inhibitors of lymphocyte specific kinase: synthesis, structure-activity relationships, and inhibition of in vivo T cell activation” (J Med Chem, 2008)
